Here are results for 1 compound from patent US6380373B1, “Steroid receptor coactivator compositions and methods of use” (Baylor College of Medicine, priority 1995, dated 2002).

Molecules are shown by their SMILES.

The assay concerns the target T1, GST-PRA (Homo sapiens, UniProt P06401).
T1 construct: made in house; host or cells: Sf9 insect cells (baculovirus)
T1 sequence (P06401 1-769 isoform P06401-2): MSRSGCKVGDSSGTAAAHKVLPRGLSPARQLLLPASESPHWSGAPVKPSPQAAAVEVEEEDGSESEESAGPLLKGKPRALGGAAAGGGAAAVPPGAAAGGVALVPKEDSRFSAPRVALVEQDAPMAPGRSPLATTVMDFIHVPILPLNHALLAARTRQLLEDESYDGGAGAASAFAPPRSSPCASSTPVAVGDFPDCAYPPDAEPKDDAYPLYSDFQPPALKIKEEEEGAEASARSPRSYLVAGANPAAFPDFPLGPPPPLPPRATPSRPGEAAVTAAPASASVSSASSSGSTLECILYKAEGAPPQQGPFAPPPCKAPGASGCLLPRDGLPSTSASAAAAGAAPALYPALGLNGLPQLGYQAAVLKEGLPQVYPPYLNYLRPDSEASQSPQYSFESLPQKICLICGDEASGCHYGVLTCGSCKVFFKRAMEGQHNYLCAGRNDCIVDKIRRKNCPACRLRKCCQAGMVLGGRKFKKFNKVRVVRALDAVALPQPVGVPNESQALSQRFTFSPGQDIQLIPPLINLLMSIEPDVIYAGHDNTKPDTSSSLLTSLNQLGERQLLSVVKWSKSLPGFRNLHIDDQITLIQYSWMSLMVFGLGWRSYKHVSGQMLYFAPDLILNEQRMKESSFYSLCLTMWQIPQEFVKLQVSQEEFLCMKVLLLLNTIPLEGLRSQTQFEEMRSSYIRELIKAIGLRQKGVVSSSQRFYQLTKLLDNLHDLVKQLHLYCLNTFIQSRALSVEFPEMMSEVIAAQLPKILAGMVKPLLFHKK
The assay can be described thus: In vitro binding of [35S]met-SRC-1(0.8) to GST-PRA on glutathione-Sepharose beads. The following applies: receptor bound to 10^−6 M ligand.

Turning to `CC(=O)[C@H]1CC[C@H]2[C@@H]3CCC4=CC(=O)CC[C@]4(C)[C@H]3CC[C@]12C` [progesterone], the “binding of [35S]SRC-1(0.8) to GST-PRA affinity column” value was “retained”.
